Test results from patent US20150004189A1.

Target: T1, HLA-DQ molecule DQB1*0501 (human)
T1 chain 1: not shown
T1 chain 2: not shown
Assay: competition: inhibition of radiolabeled peptide binding to purified HLA

| Binder | IC50 |
| --- | --- |
| IASLFAAAGLAAAAP (modifications not checked) [Alt a 1 peptide, position 6, Peptide ID 3324.0015] | 24.1 µM |
| QGVADAYITLVTLPK (modifications not checked) [Alt a 1 peptide, position 141, Peptide ID 3324.0011] | 8.01 µM |
